Structures are written as SMILES. ≈ marks a conversion by molar mass, not a printed value.

The source of these data is ChEMBL document CHEMBL4138105, “LL-37-derived short antimicrobial peptide KR-12-a5 and its d-amino acid substituted analogs with cell selectivity, anti-biofilm activity, synergistic effect with conventional antibiotics, and anti-inflammatory activity” (Eur J Med Chem, 2017).

What all share (type): functional
Assay [1] relates to Staphylococcus aureus. Nature of the assay: Antibacterial activity against methicillin resistant Staphylococcus aureus CCARM 3089 after 24 hrs. The settings on record: CCARM 3089, 24 h.
Assay [2] concerns Staphylococcus aureus. Nature of the assay: Antibacterial activity against methicillin resistant Staphylococcus aureus CCARM 3090 after 24 hrs. The settings on record: CCARM 3090, 24 h.
In assay [3] the test system is Staphylococcus aureus. Nature of the assay: Antibacterial activity against methicillin resistant Staphylococcus aureus CCARM 3095 after 24 hrs. The settings on record: CCARM 3095, 24 h.
For assay [4], the system named is Pseudomonas aeruginosa. Nature of the assay: Antibacterial activity against multidrug-resistant Pseudomonas aeruginosa CCARM 2095 after 24 hrs. The settings on record: CCARM 2095, 24 h.
In assay [5] the test system is Pseudomonas aeruginosa. Nature of the assay: Antibacterial activity against multidrug-resistant Pseudomonas aeruginosa CCARM 2109 after 24 hrs. The settings on record: CCARM 2109, 24 h.

The MIC is the least concentration at which growth counts as inhibited. Read a high MIC as a less susceptible organism. For `CC[C@H](C)[C@H](NC(=O)CN)C(=O)NCC(=O)N[C@@H](C)C(=O)N[C@H](C(=O)N[C@@H](CC(C)C)C(=O)N[C@@H](CCCCN)C(=O)N[C@H](C(=O)N[C@@H](CC(C)C)C(=O)N[C@H](C(=O)N[C@H](C(=O)NCC(=O)N[C@@H](CC(C)C)C(=O)N1CCC[C@H]1C(=O)N[C@@H](C)C(=O)N[C@@H](CC(C)C)C(=O)N[C@H](C(=O)N[C@@H](CO)C(=O)N[C@@H](Cc1c[nH]c2ccccc12)C(=O)N[C@H](C(=O)N[C@@H](CCCCN)C(=O)N[C@@H](CCCNC(=N)N)C(=O)N[C@@H](CCCCN)C(=O)N[C@@H](CCCNC(=N)N)C(=O)N[C@@H](CCC(N)=O)C(=O)N[C@@H](CCC(N)=O)C(N)=O)[C@@H](C)CC)[C@@H](C)CC)[C@@H](C)O)[C@@H](C)O)C(C)C)C(C)C` [MELITTIN], the minimal inhibitory concentration (MIC) came out at 8 µM (≈ 22.8 µg/mL) with Staphylococcus aureus [1]; 8 µM (≈ 22.8 µg/mL) against Staphylococcus aureus [2]; 8 µM (≈ 22.8 µg/mL) in the assay on Staphylococcus aureus [3]; 16 µM (≈ 45.5 µg/mL) with Pseudomonas aeruginosa [4]; 16 µM (≈ 45.5 µg/mL) in the assay with Pseudomonas aeruginosa [5].
